TIME data for one compound are collected here from ChEMBL document CHEMBL5126627, “Structure-Kinetic Relationship Studies for the Development of Long Residence Time LpxC Inhibitors” (J Med Chem, 2022).

The subject of this experiment is Pseudomonas aeruginosa. As to the kind of experiment: Binding affinity to Pseudomonas aeruginosa LpxC assessed as residence time incubated for 18 hrs by fluorescence based assay.

Consider `COc1ccc(-c2ccn(CCC(C)(C(=O)NO)S(C)(=O)=O)c(=O)c2)cc1` (racemic), for which the TIME was found to be 0.25 h.
